# From US20020192754A1, “Method for producing active serine proteases and inactive variants” (MAX-PLANCK-GESELLSCHAFT E.V., priority 1999, published 2002)
# Experiments:
# [1] = target: T1, human GzmK (Homo sapiens, UniProt P49863); conditions: table row: inhibitor 2.0 mM; cited from earlier work
# T1 construct: Met-Glu N-terminal helper dipeptide (pro-dipeptide) (N, cleaved yes); made in house
# T1 sequence (P49863 27-264): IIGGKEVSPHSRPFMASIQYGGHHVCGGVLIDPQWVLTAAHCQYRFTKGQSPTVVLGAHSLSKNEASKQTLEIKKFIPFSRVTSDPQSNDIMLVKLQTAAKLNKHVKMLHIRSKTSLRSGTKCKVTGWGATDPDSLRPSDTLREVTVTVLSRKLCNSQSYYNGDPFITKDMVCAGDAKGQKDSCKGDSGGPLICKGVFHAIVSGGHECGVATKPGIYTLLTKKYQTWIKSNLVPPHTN
# [2] = target: T1, human GzmK; assay: Inhibition of human GzmK by various inhibitors (residual activity, this study); type: biochemical; conditions: inhibitor 2.0 mM, I:E 670 x 10^3; 3 nM human GzmK; 60-minute preincubation at RT
# Procedure: These activity tests were performed in wells of a 96-cup tray with respectively 150 μl of the sample volume.
# The thiobenzylester substrates and Ellman's reagency were diluted to end concentrations of 0.3 mM in the test buffer (150 mM Tris, 50 mM NaCl, 0.01% Triton X-100, pH 7.6). The various granzyme preparations were likewise diluted to 3-15 nM in the test buffer. The color change occurring with the conversion of the substrates was measured at 405 nm and room temperature over 5 minutes in the ELISA reader. The difference in absorptions at the beginning and after 5 minutes as it relates to time was used to calculate the conversion rate.
# After a 60-minute preincubation at RT the residual activity was ascertained in triple batches. Initial activities were determined in buffers containing the same proportion of organic solvents. […] Molar concentrations of active aprotinine were ascertained with the use of activity-titrated bovine trypsin.
smiles,measurement,setting,value
"O=S(=O)(F)Cc1ccccc1 [PMSF, phenylmethylsulfonyl fluoride]","Residual Activity (%) Babé et al., Bio. Appl. Bioch. 27:117-124 (1998)",[1],0%
same,Residual Activity (%) This study,[2],0.0%
